Where “and” joins values, the source holds several entries; their conditions need not be identical. Equal entries are not always repeated.
Assays:
L1210 [1] = assay: Inhibition of growth in L1210 leukemia cells resistant to Tallimustine.
L1210 [2] = assay: Inhibition of growth in L1210 leukemia cells resistant to doxorubicin(DX).
L1210 [3] = assay: In vitro antitumor activity evaluated against L1210 murine leukemia cell line
L1210 [4] = assay: Ratio between IC50 value on resistant cells and sensitive cells; type: functional, Mus musculus; design: reference not given here
Procedure, shortened: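 Murine L1210 leukemia cells, parental and doxorubicin- or tallimustine-resistant sublines, were grown in stationary suspension in RPMI 1640 with 10% FCS, 2 mM glutamine, […] and antibiotics. Exponentially growing cells were exposed continuously for 48 h to graded concentrations from a 1 mg/mL DMSO stock, and survivors were counted electronically. IC50 came from dose-response curves, with duplicate cultures and at least two repeats. RI was the IC50 on resistant cells divided by the IC50 on sensitive cells.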

Structure (SMILES)	IC50 (L1210 [1]) [nM]	IC50 (L1210 [2]) [nM]	IC50 (L1210 [3]) [nM]	Resistance index (L1210 [4])
Cn1cc(NC(=O)c2cc(NC(=O)c3cc(NC(=O)/C=C/c4ccc(N(CCCl)CCCl)cc4)cn3C)cn2C)cc1C(=O)NCCC(=N)N	0.11	0.13	9.5	–
Cl.Cn1cc(NC(=O)c2cc(NC(=O)c3cc(NC(=O)c4ccc(N(CCCl)CCCl)cc4)cn3C)cn2C)cc1C(=O)NCCC(=N)N [TALLIMUSTINE CHLORIDE]	1.2	0.42	–	–
Cl.Cn1cc(NC(=O)c2cc(NC(=O)c3cc(NC(=O)/C=C/c4ccc(N(CCCl)CCCl)cc4)cn3C)cn2C)cc1C(=O)NCCC(=N)N	–	–	–	17.6 and 8
